{"source": "paper PMC7811525", "about": "“Virtual screening of potentially endocrine-disrupting chemicals against nuclear receptors and its application to identify PPARγ-bound fatty acids” (Archives of Toxicology, 2020)", "origin": "cited, not measured here", "tested_on": "AR", "conditions": "active/inactive call; ref ToxCast database released in October 2015; cited from earlier work"}
{"smiles": "CC(C)OP(=S)(OC(C)C)SCCNS(=O)(=O)c1ccccc1", "values": [{"measurement": "ToxCast activity against AR", "value": "active"}]}
